Half-life and t1/2 data for one substance are collected here from US7566805B2, “Modafinil compositions” (priority 2003, dated 2009).

The nature of data set [1]: Racemic modafinil:malonic acid co-crystal pharmacokinetic study in dogs (vs micronized pure modafinil). It is filed as in vivo. The protocol:
As a reference, micronized modafinil with a median particle size of about 2 micrometers was also administered in the study. […] Such a higher bioavailability illustrates the modulation of an important pharmacokinetic parameter due to an embodiment of the present invention. A compilation of important pharmacokinetic parameters measured during the animal study are included in Table V.

Data set [2] can be described thus: Pharmacokinetic study with dogs: modafinil:malonic acid formulated with lactose vs PROVIGIL tablets. The conditions noted are these: 200 mg modafinil, Mean. It is filed as in vivo. From the text:
Severel important pharmacokinetic parameters are described in Table VI. In Table VI, “Cmax” is the maximum blood plasma concentration, “AUC (inf)” is the extrapolated area under the curve, “t1/2” is the amount of time for the blood plasma level to decrease to half of the Cmax level beginning at administration, “Tmax” is the time to maximum blood plasma concentration from administration, “CL” is the clearance rate of modafinil, and “F %” is the percent bioavailability.

“Racemic Modafinil:Malonic Acid Co-crystal [Modafinil: malonic acid co-crystal]” returned a Half-life in data set [1] of 5.1 ± 2.4 h. For the same substance, in data set [2], the t1/2 is 1.63.
